In assay [1] the target is rat Munc13-1(859–1407,1453–1531) fragment (MUN*) (rat, UniProt Q62768, in part, Munc13-1(859–1407,1453–1531)). Put plainly: NMR titration.
Assay [2] deals with full-length rat Munc18-1 (rat). Put plainly: NMR titration.
In assay [3] the target is cytoplasmic domain ([…]) of rat syntaxin-1A (rat). As to the kind of experiment: SEC. (In gel filtration, larger molecules generally elute earlier.)
In assay [4] the target is syntaxin-1 SNARE motif ([…]) (rat). Put plainly: assembly and ultrafiltration.

The source of these data is paper PMC3087822 (Nature structural & molecular biology, 2011).

Several values for one entry are separate records, joined by “and”; a condition that tells them apart may be missing. Equal entries are not always repeated.

B1: SNARE complex formed with syntaxin-1([…]), synaptobrevin([…]), SNAP-25([…]) and SNAP-25([…]) (complex)
chain 1: [skipping about 250 residues]
chain 2: NRRLQQTQAQVDEVVDIMRVNVDKVLERDQKLSELDDRADALQAGASQFETSAAKLKRKYWWKNL
chain 3: LEEMQRRADQLADESLESTRRMLQLVEESKDAGIRTLVMLDEQGEQLERIEEGMDQINKDMKEAEKNLTDLG
chain 4: ARENEMDENLEQVSGIIGNLRHMALDMGNEIDTQNRQIDRIMEKADSNKTRIDEANQRATKML
In the case of B1, the Kd in assay [1] is 26 µM and 35 µM. Besides, the binding result in assay [2] is reported as “binds”.

B2: SNARE complex formed with syntaxin-1(191–253), synaptobrevin(29–93), SNAP-25(11–82) and SNAP-25(141–203) (complex)
chain 1: ALSEIETRHSEIIKLENSIRELHDMFMDMAMLVESQGEMIDRIEYNVEHAVDYVERAVSDTKK
chain 2: B1 chain 2
chain 3: B1 chain 3
chain 4: B1 chain 4
B2 came in with a Kd in assay [1] of 28 ± 5 µM.

B3: human SNAP25 (residues 141–203) (domain or fragment)
chain: B1 chain 4
On to B3, for which the binding result in assay [3] and in assay [4] was “binds” each time.

By Kd is commonly meant the equilibrium constant for the complex coming apart. A higher Kd goes with weaker binding.
